{
  "source": "patent EP2033655B1",
  "about": "(INSERM (Institut National de la Santé et de la Recherche …, dated 2009)",
  "binders": {"B1": {"name": "GST (glutathione S-transferase alone) (other, UniProt P08515 1-218, looked up)", "chain": "MSPILGYWKIKGLVQPTRLLLEYLEEKYEEHLYERDEGDKWRNKKFELGLEFPNLPYYIDGDVKLTQSMAIIRYIADKHNMLGGCPKERAEISMLEGAVLDIRYGVSRIAYSKDFETLKVDFLSKLPEMLKMFEDRLCHKTYLNGDHVTHPDFMLYDALDVVLYMDPMCLDAFPKLVCFKKRIEAIPQIDKYLKSSKYIAWPLQGWQATFGGGDHPPK", "notes": "also called GST alone"}},
  "biological_target": "T1, Nucleolin solubilized from THP-1 cell membranes (human)",
  "T1 construct": "also called protein doublet at 95 kDa",
  "assay": "GST pull-down on glutathione-Sepharose, immunoblot with anti-nucleolin MAb",
  "data": [
    {"binder": "B1", "values": [
      {"measurement": "binding result", "value": "no binding"}
    ]}
  ]
}
